For the assay, the target named is FAAH (Mus musculus, UniProt O08914). Briefly: Gel-based competitive ABPP. Format: biochemical.

By UniProt entry, the sequences of proteins in these tests, tags left out.
UniProt O08914, whole entry: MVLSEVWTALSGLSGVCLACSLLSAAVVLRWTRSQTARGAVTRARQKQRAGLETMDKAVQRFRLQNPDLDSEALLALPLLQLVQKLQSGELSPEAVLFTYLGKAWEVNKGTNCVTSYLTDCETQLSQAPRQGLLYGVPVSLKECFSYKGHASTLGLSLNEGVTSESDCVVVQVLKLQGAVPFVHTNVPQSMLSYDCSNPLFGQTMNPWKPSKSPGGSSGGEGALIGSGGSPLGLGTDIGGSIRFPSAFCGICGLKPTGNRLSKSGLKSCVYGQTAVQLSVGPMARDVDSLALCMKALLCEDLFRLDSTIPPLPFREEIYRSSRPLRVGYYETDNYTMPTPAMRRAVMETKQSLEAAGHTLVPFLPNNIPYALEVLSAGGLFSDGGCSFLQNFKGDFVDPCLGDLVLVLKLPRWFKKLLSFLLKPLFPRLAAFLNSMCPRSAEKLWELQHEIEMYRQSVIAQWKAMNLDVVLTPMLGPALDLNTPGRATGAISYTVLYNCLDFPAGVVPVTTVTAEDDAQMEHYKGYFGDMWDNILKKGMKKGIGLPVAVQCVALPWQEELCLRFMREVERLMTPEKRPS

Regarding `CCOP(=O)(OCC)Oc1nc(Cl)c(Cl)cc1Cl` [CPO, chlorpyrifos-oxon], the “IC50 compared to that of ACHE” value was “comparable”.

The values are drawn from publication PMC4042408 (ACS chemical biology, 2013).
